First the molecules themselves.
T1: Finotonlimab
T1 chain 1: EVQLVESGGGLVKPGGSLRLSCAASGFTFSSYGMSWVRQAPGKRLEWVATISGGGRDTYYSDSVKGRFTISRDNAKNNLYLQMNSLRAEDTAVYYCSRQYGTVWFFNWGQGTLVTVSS
T1 chain 2: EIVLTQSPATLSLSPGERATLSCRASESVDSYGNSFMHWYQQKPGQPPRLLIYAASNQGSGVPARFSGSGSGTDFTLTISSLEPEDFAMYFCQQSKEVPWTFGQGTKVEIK

B1: PD-1 wt protein, Q15116 D85A (protein)
chain: LDSPDRPWNPPTFSPALLVVTEGDNATFTCSFSNTSESFVLNWYRMSPSNQTDKLAAFPEARSQPGQDCRFRVTQLPNGRDFHMSVVRARRNDSGTYLCGAISLAPKAQIKESLRAELRVTERRAEVPTAHPSPSPRPAGQFQTLV
B2: PD-1 wt protein, Q15116 E136A; R139A (protein)
chain: LDSPDRPWNPPTFSPALLVVTEGDNATFTCSFSNTSESFVLNWYRMSPSNQTDKLAAFPEDRSQPGQDCRFRVTQLPNGRDFHMSVVRARRNDSGTYLCGAISLAPKAQIKASLAAELRVTERRAEVPTAHPSPSPRPAGQFQTLV
B3: PD-1 wt protein, Q15116 R30A (protein)
chain: LDSPDAPWNPPTFSPALLVVTEGDNATFTCSFSNTSESFVLNWYRMSPSNQTDKLAAFPEDRSQPGQDCRFRVTQLPNGRDFHMSVVRARRNDSGTYLCGAISLAPKAQIKESLRAELRVTERRAEVPTAHPSPSPRPAGQFQTLV
B4: PD-1 wt protein, Q15116 N66A (protein)
chain: LDSPDRPWNPPTFSPALLVVTEGDNATFTCSFSNTSESFVLAWYRMSPSNQTDKLAAFPEDRSQPGQDCRFRVTQLPNGRDFHMSVVRARRNDSGTYLCGAISLAPKAQIKESLRAELRVTERRAEVPTAHPSPSPRPAGQFQTLV
B5: PD-1 wt protein, Q15116 D29A; R30A (protein)
chain: LDSPAAPWNPPTFSPALLVVTEGDNATFTCSFSNTSESFVLNWYRMSPSNQTDKLAAFPEDRSQPGQDCRFRVTQLPNGRDFHMSVVRARRNDSGTYLCGAISLAPKAQIKESLRAELRVTERRAEVPTAHPSPSPRPAGQFQTLV
B6: PD-1 wt protein, Q15116 K78A (protein)
chain: LDSPDRPWNPPTFSPALLVVTEGDNATFTCSFSNTSESFVLNWYRMSPSNQTDALAAFPEDRSQPGQDCRFRVTQLPNGRDFHMSVVRARRNDSGTYLCGAISLAPKAQIKESLRAELRVTERRAEVPTAHPSPSPRPAGQFQTLV

The target of this experiment is T1, Finotonlimab. The experiment in a line: ELISA (mutation study, epitope mapping). Conditions: chain shown with the change;; parent: est. 100; read off a plot. (In general: An ELISA detects its analyte on a solid surface through an enzyme-linked reagent.)
In the case of B1, the percent of parent was determined as 35%. For B2 the value was 100%. For B3 the value was 95%; for B4, 87%. For B5 the value was 100%; for B6, 85%.

For the origin of these results see PMC11946465.
